Experimental findings from ChEMBL document CHEMBL1821699, “1,5-Disubstituted indole derivatives as selective human neuronal nitric oxide synthase inhibitors” (Bioorg Med Chem Lett, 2011) are described below.

Amino acid sequences for entries named in this document (tags omitted).
UniProt P29475, whole entry: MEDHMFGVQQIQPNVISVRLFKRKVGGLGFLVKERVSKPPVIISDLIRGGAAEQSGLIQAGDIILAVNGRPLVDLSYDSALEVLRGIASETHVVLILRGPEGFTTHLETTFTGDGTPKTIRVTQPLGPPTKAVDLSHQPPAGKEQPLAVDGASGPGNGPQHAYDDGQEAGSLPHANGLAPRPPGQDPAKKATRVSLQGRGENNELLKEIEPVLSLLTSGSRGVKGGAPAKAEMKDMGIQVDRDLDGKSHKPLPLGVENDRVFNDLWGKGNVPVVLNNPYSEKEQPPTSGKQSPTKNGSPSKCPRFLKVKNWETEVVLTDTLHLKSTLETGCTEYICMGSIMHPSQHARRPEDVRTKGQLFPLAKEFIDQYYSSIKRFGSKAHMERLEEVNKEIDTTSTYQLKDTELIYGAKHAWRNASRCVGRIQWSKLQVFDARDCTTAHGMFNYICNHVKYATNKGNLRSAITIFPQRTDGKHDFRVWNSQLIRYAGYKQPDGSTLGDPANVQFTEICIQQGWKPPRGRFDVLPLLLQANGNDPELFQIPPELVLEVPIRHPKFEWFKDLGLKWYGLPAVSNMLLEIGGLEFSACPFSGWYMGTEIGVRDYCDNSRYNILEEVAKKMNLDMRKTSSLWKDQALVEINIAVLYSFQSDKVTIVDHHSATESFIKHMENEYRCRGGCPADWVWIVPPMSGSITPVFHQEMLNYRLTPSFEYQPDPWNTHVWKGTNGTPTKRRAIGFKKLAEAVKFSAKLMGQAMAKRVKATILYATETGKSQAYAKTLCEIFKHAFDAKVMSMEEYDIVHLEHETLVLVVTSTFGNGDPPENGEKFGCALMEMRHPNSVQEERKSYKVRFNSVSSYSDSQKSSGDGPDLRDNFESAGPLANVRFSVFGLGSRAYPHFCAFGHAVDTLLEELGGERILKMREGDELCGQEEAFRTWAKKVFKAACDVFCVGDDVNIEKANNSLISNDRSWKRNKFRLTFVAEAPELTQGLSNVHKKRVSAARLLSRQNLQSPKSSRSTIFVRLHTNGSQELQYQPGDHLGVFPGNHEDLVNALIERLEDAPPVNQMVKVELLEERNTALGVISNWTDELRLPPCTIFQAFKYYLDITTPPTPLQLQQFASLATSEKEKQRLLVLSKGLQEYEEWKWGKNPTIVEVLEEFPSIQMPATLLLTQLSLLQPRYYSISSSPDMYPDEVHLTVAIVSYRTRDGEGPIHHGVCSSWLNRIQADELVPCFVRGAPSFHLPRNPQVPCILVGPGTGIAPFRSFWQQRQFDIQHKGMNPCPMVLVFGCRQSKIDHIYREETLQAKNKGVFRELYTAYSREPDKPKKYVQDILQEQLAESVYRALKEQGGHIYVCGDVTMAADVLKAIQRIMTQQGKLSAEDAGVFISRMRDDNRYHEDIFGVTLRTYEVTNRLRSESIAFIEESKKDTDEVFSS

pIC50: −log10 of the molar value.

In this assay the target is Nitric oxide synthase 1 (Homo sapiens, UniProt P29475). Nature of the assay: Inhibition of human recombinant nNOS expressed in Sf9 cells assessed as conversion of [3H]-L-arginine to [3H]-L-citrulline by radiometric method.

On to `CN1CCC[C@@H]1CCn1ccc2cc(NC(=N)c3cccs3)ccc21`, for which the pIC50 (commonly the negative decadic logarithm of the IC50, by convention in mol/L) is 7.22.
As for `CN1CCC[C@H]1CCn1ccc2cc(NC(=N)c3cccs3)ccc21`, the pIC50 was 7.70.
